From ChEMBL document CHEMBL2057199, “Development of novel M1 antagonist scaffolds through the continued optimization of the MLPCN probe ML012” (Bioorg Med Chem Lett, 2012)

Sequences of proteins named here, by UniProt entry; tags and fusion partners are left off. A change or cut given only in a name is not applied to a line headed by its entry.
UniProt P11229: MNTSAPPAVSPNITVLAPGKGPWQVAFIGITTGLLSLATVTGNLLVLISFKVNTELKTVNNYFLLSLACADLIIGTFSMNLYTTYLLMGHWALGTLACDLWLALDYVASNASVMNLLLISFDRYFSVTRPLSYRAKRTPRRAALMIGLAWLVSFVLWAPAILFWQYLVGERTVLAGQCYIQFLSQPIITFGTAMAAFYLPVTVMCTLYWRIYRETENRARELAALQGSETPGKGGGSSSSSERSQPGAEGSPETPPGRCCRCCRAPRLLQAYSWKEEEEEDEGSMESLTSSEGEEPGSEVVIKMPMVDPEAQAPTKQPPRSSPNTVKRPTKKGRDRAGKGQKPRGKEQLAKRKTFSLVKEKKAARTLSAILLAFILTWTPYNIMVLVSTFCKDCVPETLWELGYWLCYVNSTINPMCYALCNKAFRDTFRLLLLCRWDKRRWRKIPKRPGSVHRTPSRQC

molecular target: Muscarinic acetylcholine receptor M1 (Homo sapiens, UniProt P11229); test: Antagonist activity at human muscarinic M1 receptor expressed in CHO cells assessed as inhibition of acetylcholine-induced calcium mobilization by fluorescence analysis; format: functional, cell-based

Row | Compound | IC50 [µM]
1 | O=C(C1CN(S(=O)(=O)c2cccc(Cl)c2)C1)N1CCN(c2ccncc2)CC1 | 4.1
2 | O=C(C1CN(S(=O)(=O)c2cccc3cnccc23)C1)N1CCN(c2ccncn2)CC1 | 1.5
3 | Cc1cc2c(S(=O)(=O)N3CC(C(=O)N4CC5CN(c6ccncc6)CC5C4)C3)cccc2cn1 (stereo not drawn) | 2.7
4 | Cc1cc(S(=O)(=O)N2CC(C(=O)N3CCN(c4ccncc4)CC3)C2)cnc1Cl | 0.31
5 | O=C(C1CN(S(=O)(=O)c2cccc(Cl)c2Cl)C1)N1CC2CN(c3ccncc3)CC2C1 (stereo not drawn) | 1.5
6 | O=C(C1CN(S(=O)(=O)c2cccc3c(Cl)nc(Cl)cc23)C1)N1CCN(c2ccncc2)CC1 | 5.5
7 | O=C(C1CN(S(=O)(=O)c2ccc3c(c2)OCO3)C1)N1CCN(c2ccncc2)CC1 | 0.83
8 | O=C(C1CN(S(=O)(=O)c2cccc3nsnc23)C1)N1CC2CN(c3ccncc3)CC2C1 (stereo not drawn) | 2.8

Other lines, results leading:

Row | IC50 [µM] | Compound
9 | 2.8 | O=C(C1CN(S(=O)(=O)c2cccc(Cl)c2F)C1)N1CCN(c2ccncc2)CC1
10 | 0.11 | O=C(C1CN(S(=O)(=O)c2cccc3cnccc23)C1)N1CCN(c2ccncc2)CC1
11 | 1.7 | O=C(C1CN(S(=O)(=O)c2ccc3ncccc3c2)C1)N1CCN(c2ccncc2)CC1
12 | 1.8 | O=C(C1CN(S(=O)(=O)c2cccc3ncccc23)C1)N1CCN(c2ccncc2)CC1
13 | 2.2 | Cc1cc2c(S(=O)(=O)N3CC(C(=O)N4CCN(c5ccncc5)CC4)C3)cccc2cn1
